From paper PMC3539163 (Steroids, 2011)

Legend:
[1] = test system: human promyeloid leukemia (HL-60) cells; test: HL-60 differentiation; type: cell-based; conditions: relative to 1 (1,25(OH)2D3)
[2] = test system: transcription of 24-hydroxylase in rat osteosarcoma cells; test: CYP24A1 transcription; type: cell-based; conditions: relative to 1 (1,25(OH)2D3)

C=C1/C(=C\C=C2/CCC[C@]3(C)[C@@H]([C@H](C)CCCC(C)(C)O)CC[C@@H]23)C[C@@H](O)C[C@@H]1O [compound 1, 1α,25-dihydroxyvitamin D3, reference compound]
HL-60 differentiation Ratio [1]: 1 | CYP24A1 transcription Ratio [2]: 1
